Test system: phi 6 phage
Assay: Inactivation of phi 6 in plasma with molybdenum X-ray radiation, plaque method
Type: cell-based
Settings: hydrated and lyophilized plasma, 1%, 353 kr; in words

In the case of `CCCCOP(=O)(OCCCC)OCCCC`, the “viral inactivation with molybdenum X-ray radiation on addition of organic solvent or detergent” value is reported as “substantially enhanced”.

Source: patent US5587490A, “Method of inactivation of viral and bacterial blood contaminants” (Credit Managers Association of California, priority 1993, dated 1996)
